Values of other authors as cited in US6410340B1, “Use of an 8.4 kDa protein as an immunophilin reagent in protein binding assays for immunosuppressive drugs” (Children's Research Institute, priority 2000, dated 2002).

Conditions: patients; cited from earlier work

cyclosporin A [CsA]
fraction in the blood in the form of the parent compound: approximately ⅓
